From patent US11000627B2, “Treatment of implants with phosphonic acid compounds” (Nano Bridging Molecules SA, priority 2016, dated 2021)

Legend:
Type in all cases: physicochemical
[1] = XPS phosphorus over metal ratio on Titanium grade 4 cylinders
[2] = XPS phosphorus over metal ratio on Titanium grade 5 dental implant (prospective data)
Protocol: A Titanium grade 5 dental implant (bulk composition atomic concentration Titanium 90%, Aluminum 6%, Vanadium 4%; length 11.0 mm, diameter 3.75 mm) is provided with a roughened surface, produced by sand blasting and acid etching according to industry standards. The dental implant is immersed in 30 ml of a 2% (v/v) aqueous solution of deconex 15 PF-x (which is a phosphate free, potassium hydroxide based standard cleaning agent). The solution is placed in an ultrasonic bath (output frequency 30 kHz) and sonicated at 65° C. for 15 min. The implant is removed from the cleaning agent solution and rinsed with water as follows: 2 times with 30 ml, swirling at room temperature; 4 times with 30 ml, sonicating for 2 min at 65° C.; 1 time with 30 ml, swirling at room temperature. […] The solution is placed in the ultrasonic bath and sonicated at 65° C. for 10 min. The implant is rinsed with water as follows: 2 times with 10 ml, swirling at room temperature; 1 time with 10 ml, sonicating for 2 min at 65° C.; 1 time with 10 ml, swirling at room temperature. The dental implant is dried in a desiccator over P2O5 and under vacuum (ca 20 mbar) for at least 3 hours. The samples are analyzed by X-ray photoelectron spectroscopy (XPS). Same analysis conditions as described in Example 8 are used.

[3] = as above; remark: listed apart in the source

diethylenetriamine penta(methylene phosphonic acid) [PA-7]
Phosphorus/Metal [1]: 0.16^b
Phosphorus/Metal (surface treatment as described herein above) [2]: 0.16-0.20
Phosphorus/Metal (surface treatment as described in Comp. Example 6) [3]: 0.05-0.11

Marks after values point to notes of the source that are not given here.
